Values quoted from earlier work as cited in publication PMC4871277 (Biochemical pharmacology, 2015).

Molecular target: T1, HDAC8 (Homo sapiens, UniProt Q9BY41)
T1 sequence (Q9BY41 1-377): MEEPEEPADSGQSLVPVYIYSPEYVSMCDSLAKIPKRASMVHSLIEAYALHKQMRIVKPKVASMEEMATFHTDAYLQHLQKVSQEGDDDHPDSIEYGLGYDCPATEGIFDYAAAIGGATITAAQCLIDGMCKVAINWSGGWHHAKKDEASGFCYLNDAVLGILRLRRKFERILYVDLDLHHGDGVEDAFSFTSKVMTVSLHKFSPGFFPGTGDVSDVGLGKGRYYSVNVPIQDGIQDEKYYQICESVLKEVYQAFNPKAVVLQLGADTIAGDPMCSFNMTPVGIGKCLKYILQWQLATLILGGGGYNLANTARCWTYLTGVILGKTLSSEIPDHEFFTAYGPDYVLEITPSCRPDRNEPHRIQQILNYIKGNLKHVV
Details: read-out: Ki value HDAC8; determined at the authors' lab previously; cited from earlier work

## O=C(CCCCCCC(=O)Nc1ccccc1)NO [SAHA, suberanilohydroxamic acid]
  Ki: 1 ± 0.2 nM
